TrxR1 substrate: is turned over as a substrate by rat TrxR1 | O89049 | purified TrxR1 substrate turnover, NADPH consumption readout | Potency, µM (doses to about 114 µM) | 390,000 tested, 0.01% active | AID 588456; also: nearly all actives have a fitted effect of over 50% in size
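Rat TrxR1, dispensed at 90 nM, was prereduced with 400 uM NADPH (final) for 5 min at ~22 deg C, then incubated with compound 15 min before 400 uM selenite. A first-read NADPH fluorescence drop versus no-compound background flagged substrates.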
Anesthetic bind: candidate novel general anesthetic via apoferritin binding; P02791; apoferritin/1-aminoanthracene competitive binding, fluorescence; Potency, µM (highest dose often 77.5 µM), hits mostly inhibitors; 350,000 tested, 0.074% active; AID 485281; also: nearly all actives have a fitted effect of over 20% in size
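In PBS, apoferritin at 10 uM is loaded with 1-AMA from a 50% saturated solution. After 10 min of compound exposure at ambient temperature, reduced 535 nm fluorescence indicates probe displacement.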
ClpP mod: qHTS Assay for Activators of ClpP. 340,000 tested, 1.9% active. purified B. subtilis ClpP, FRET peptide cleavage, 20 min. Potency, µM (doses to about 57.5 µM). ATP-dependent Clp protease proteolytic subunit (Bacillus subtilis (strain 168)), P80244; active = well fitted falling curve with a large enough effect; inconclusive = small, poorly fitted or top-dose-only effect; inactive = no such curve, though single readings can be large or run the other way; also: the source files actives as falling curves though it sought activators and does not explain the sign; nearly all actives have a fitted effect of over 65% in size
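ClpP 10 microg/mL final, pH 8 Tris/KCl buffer with BSA, glycerol, Tween-20; compound pinned in; FRET-FV substrate; RT 20 min; Ex320/Em430; ΔFRET vs ADEP 5.8 microM, DMSO, no enzyme.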
miR-21 reporter: miR-21 reporter, rising signal; HeLa miR-21 FLuc reporter, luciferase, 48 h; Potency, µM (titrated, usually from 38.3 µM); AID 2288; 340,000 tested, under 10 active; active = well fitted rising curve with a large enough effect; inconclusive = small, poorly fitted or top-dose-only effect; inactive = no such curve, though single readings can be large or run the other way;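 further: miR-21 action dims this reporter so a rising signal means less miR-21 action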
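Using DMEM plus 10% FBS, HeLa miR-21-FLuc cells are incubated with test compounds (final up to about 40uM) for 48 hours; firefly luciferase signal is then imaged following reagent-mediated lysis.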
rTrxR1 inhibitor: inhibitors of rat thioredoxin reductase 1; AID 588453; recombinant rTrxR1, NADPH fluorescence consumption, selenite substrate; 390,000 tested, 1% active; O89049; Potency, µM (titrated, usually from 114 µM), most hits filed as inhibitors; also: nearly all actives have a fitted effect of over 65% in size
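Rat TrxR1 (90 nM in the dispensed reagent) was pre-reduced with 400 uM NADPH for 5 min at room temperature, then incubated with compound for 15 min. After 400 uM selenite was added, NADPH fluorescence (Ex 340/Em 450 nm) was followed for 8 min.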
Hits are given with their value; [ ] = remark or other dose. Only some compounds are listed: those with a hit (about 2.5% of all), similar ones and a draw of the others. Unless noted, calls follow the shape of the dose curve; as a rule, active = well fitted curve in the direction sought with a large enough effect; inconclusive = small, poorly fitted or top-dose-only effect, or another doubt; inactive = no such curve, though single readings can be large; an effect the other way counts as inactive or inconclusive.

Protein sequences, listed by entry. Tags and fused reporters are not part of them.
ATP-dependent Clp protease proteolytic subunit (Bacillus subtilis (strain 168)), P80244, UniProt P80244, whole entry, looked up: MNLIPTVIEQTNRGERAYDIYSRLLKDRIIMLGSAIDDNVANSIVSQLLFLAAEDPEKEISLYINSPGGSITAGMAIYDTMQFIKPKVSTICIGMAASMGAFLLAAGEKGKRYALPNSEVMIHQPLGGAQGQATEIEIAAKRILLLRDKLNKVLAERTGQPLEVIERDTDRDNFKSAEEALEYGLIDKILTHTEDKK

What do the screens show for `Cc1cc(Sc2nc(N)ncc2[N+](=O)[O-])ncn1`?
TrxR1 substrate: inactive; Anesthetic bind: inactive; miR-21 reporter: inactive; rTrxR1 inhibitor: 1.58µM

How did CCOC(=O)c1cccc(NC(=O)c2cc(-c3ccc(Cl)s3)nc3ccccc23)c1 do in these assays?
TrxR1 substrate: inactive; Anesthetic bind: inactive; ClpP mod: inconclusive; miR-21 reporter: inactive; rTrxR1 inhibitor: inactive

How did COc1ccccc1Cc1nc2ccccc2nc1SCC(=O)NCc1ccccc1Cl do in these assays?
TrxR1 substrate: inactive; Anesthetic bind: inactive; ClpP mod: inactive; miR-21 reporter: inactive; rTrxR1 inhibitor: inactive

Results for COc1ccc(OC)c(-n2c(SCC(=O)NCC3CCCO3)nc3ccccc3c2=O)c1 (stereo not drawn) ?
TrxR1 substrate: inactive; ClpP mod: inactive; rTrxR1 inhibitor: inactive

What do the screens show for `COCCn1c(N)c(C(=O)NCC2CCCO2)c2nc3ccccc3nc21` (stereo not drawn)?
TrxR1 substrate: inactive; Anesthetic bind: inactive; ClpP mod: inconclusive; miR-21 reporter: inactive; rTrxR1 inhibitor: inactive

How did Nc1c(C(=O)OCC2CCCO2)c2nc3ccccc3nc2n1C1CCCC1 (stereo not drawn) do in these assays?
TrxR1 substrate: inactive; Anesthetic bind: inactive; ClpP mod: 25.1µM; miR-21 reporter: inactive; rTrxR1 inhibitor: inconclusive

What do the screens show for `COc1ccc(OC)c(-n2c(N)c(C(=O)NCC3CCCO3)c3nc4ccccc4nc32)c1` (stereo not drawn)?
TrxR1 substrate: inactive; Anesthetic bind: inactive; ClpP mod: 17.8µM; miR-21 reporter: inactive; rTrxR1 inhibitor: inactive

Results for CC(C)Cn1c(N)c(C(=O)NCC2CCCO2)c2nc3ccccc3nc21 (stereo not drawn) ?
TrxR1 substrate: inactive; Anesthetic bind: inactive; ClpP mod: 28.2µM; miR-21 reporter: inactive; rTrxR1 inhibitor: inactive

Results for CCC1CCCCN1S(=O)(=O)c1cc2c(cc1C)NC(=O)CO2 (stereo not drawn) ?
TrxR1 substrate: inactive; Anesthetic bind: inactive; ClpP mod: inactive; miR-21 reporter: inactive; rTrxR1 inhibitor: inactive

Results for COC(=O)c1cc2occc2n1CC(=O)Nc1ccc(N(C)C)cc1 ?
TrxR1 substrate: inactive; Anesthetic bind: inactive; ClpP mod: inactive; miR-21 reporter: inactive; rTrxR1 inhibitor: inactive

How did COc1ccc(CC(=O)n2[nH]c(=O)ccc2=O)cc1OC do in these assays?
TrxR1 substrate: inactive; Anesthetic bind: inactive; miR-21 reporter: inactive; rTrxR1 inhibitor: 3.55µM

Results for Cc1csc(NCC(=O)c2c(C)[nH]c3ccccc23)n1 ?
TrxR1 substrate: inactive; ClpP mod: inactive; rTrxR1 inhibitor: inactive

What do the screens show for `CCC1=[N+](C)CCn2c(C)ccc21`?
TrxR1 substrate: inactive; Anesthetic bind: inactive; ClpP mod: inactive; miR-21 reporter: inactive; rTrxR1 inhibitor: inactive

How did CC(=O)c1c(C)c(C)c2n1CCn1c(C)ccc1-2 do in these assays?
TrxR1 substrate: inactive; Anesthetic bind: inactive; ClpP mod: inactive; miR-21 reporter: inactive; rTrxR1 inhibitor: 25.1µM

How did Cn1c(-c2ccccc2)c(O)c(=O)c2ccccc21 do in these assays?
Anesthetic bind: inactive[15.3 µM]

Results for Cn1c(-c2ccccc2)c(CCO)c2ccccc21 ?
TrxR1 substrate: inactive; Anesthetic bind: inactive; ClpP mod: 28.2µM; miR-21 reporter: inactive; rTrxR1 inhibitor: inactive

How did C=CCOC(=O)C1=C(C)N=c2s/c(=C3\C(=O)N(CC(=O)O)c4ccccc43)c(=O)n2C1c1ccc(OC)cc1 (stereo not drawn) do in these assays?
TrxR1 substrate: inactive; Anesthetic bind: inactive; ClpP mod: inactive; miR-21 reporter: inactive; rTrxR1 inhibitor: 35.5µM

Results for Cc1ccc(C)c(Cn2c3ccccc3c3cnn(CC(=O)NCC(C)c4ccccc4)c(=O)c32)c1 (stereo not drawn) ?
TrxR1 substrate: inactive; Anesthetic bind: inactive; ClpP mod: inactive; miR-21 reporter: inactive; rTrxR1 inhibitor: inactive

What do the screens show for `CC(=O)Nc1ccc(S(=O)(=O)N2CCC(c3nnnn3-c3ccccc3)CC2)cc1`?
TrxR1 substrate: inactive; Anesthetic bind: inactive; ClpP mod: inactive; miR-21 reporter: inactive; rTrxR1 inhibitor: inactive

How did CCCCCC(=O)Nc1ccc(N2CCOCC2)c(S(=O)(=O)Nc2ccc(OC)cc2)c1 do in these assays?
TrxR1 substrate: inactive; rTrxR1 inhibitor: inactive

How did COc1ccc(NS(=O)(=O)c2cc(NC(=O)/C=C/c3cccs3)ccc2N2CCOCC2)cc1 do in these assays?
TrxR1 substrate: inactive; Anesthetic bind: inactive; ClpP mod: 28.2µM; miR-21 reporter: inactive; rTrxR1 inhibitor: inactive

How did COc1ccccc1NC(=O)c1cnc(SCC(=O)N2CCCc3ccccc32)n(C)c1=O do in these assays?
TrxR1 substrate: inactive; Anesthetic bind: inactive; ClpP mod: inactive; miR-21 reporter: inactive; rTrxR1 inhibitor: inactive

What do the screens show for `CCOC(=O)C(C)Oc1ccc2c(CC)cc(=O)oc2c1C` (stereo not drawn)?
TrxR1 substrate: inactive; Anesthetic bind: inactive; ClpP mod: 17.8µM; miR-21 reporter: inactive; rTrxR1 inhibitor: inactive

What do the screens show for `O=C(c1ccc2c(c1)N(Cc1cccc(Cl)c1)C(=O)c1ccccc1S2(=O)=O)N1CCC(Cc2ccccc2)CC1`?
TrxR1 substrate: inactive; Anesthetic bind: inactive; ClpP mod: inactive; miR-21 reporter: inactive; rTrxR1 inhibitor: inactive

How did CCOc1ccc(C(=O)NC2CC(=O)N(c3ccc(C)cc3)C2)cc1OCC (stereo not drawn) do in these assays?
TrxR1 substrate: inactive; Anesthetic bind: inactive; ClpP mod: inactive; miR-21 reporter: inactive; rTrxR1 inhibitor: inactive

Results for CN1C/C(=C/c2cccnc2)C(=O)/C(=C/c2cccnc2)C1 ?
TrxR1 substrate: inactive; Anesthetic bind: inactive; ClpP mod: inactive; miR-21 reporter: inconclusive; rTrxR1 inhibitor: 10µM

How did CC(C)N1C/C(=C/c2cccnc2)C(=O)/C(=C/c2cccnc2)C1 do in these assays?
TrxR1 substrate: inactive; Anesthetic bind: inactive; ClpP mod: inactive; miR-21 reporter: inconclusive; rTrxR1 inhibitor: inconclusive

What do the screens show for `COc1ccc(-c2nsc(C(=O)N(c3ccc(F)cc3)C(C(=O)NC3CCCC3)c3ccc(OC)cc3)c2N)cc1` (stereo not drawn)?
TrxR1 substrate: inactive; Anesthetic bind: inactive; ClpP mod: 15.8µM; miR-21 reporter: inactive; rTrxR1 inhibitor: inactive

How did O=C(NC1CCCCC1)C(c1cccnc1)N(C(=O)CCl)c1ccccc1Cl (stereo not drawn) do in these assays?
TrxR1 substrate: inactive; Anesthetic bind: inactive; ClpP mod: inactive; miR-21 reporter: inconclusive; rTrxR1 inhibitor: inactive

What do the screens show for `O=C(NC1CCCCC1)C(c1cccnc1)N(C(=O)CCl)c1ccc(F)cc1` (stereo not drawn)?
TrxR1 substrate: inactive; Anesthetic bind: inactive; ClpP mod: inactive; miR-21 reporter: inconclusive; rTrxR1 inhibitor: 14.1µM
